Laboratory results from paper PMC5573295.

Tests used:
[1] = biological target: rabbit skeletal muscle actin (rabbit) (UniProt P68135)
[2] = biological target: rabbit skeletal muscle actin (rabbit) (UniProt P68135); remark: listed apart in the source
[3] = biological target: rabbit skeletal muscle actin (rabbit) (UniProt P68135); remark: listed apart in the source
[4] = biological target: rabbit skeletal muscle actin (rabbit) (UniProt P68135); remark: listed apart in the source

bundling of 4 μM F-actin by 3 μM (42 μg/ml) H2A histone, low speed centrifugation (series 1-4 μM) [1]: 94%
NaCl at which H2A histone induced F-actin bundles are completely dissociated, low speed centrifugation (0-400 mM NaCl) [2]: 300 mM
F-actin (4 μM, bundled by 3 μM H2A histone) sedimented at low speed after 200 μg/ml DNA, as percent of that without DNA [3]: 15%
DNase1 concentration that fully depolymerizes 4 μM F-actin bundled by 3 μM H2A histone, low speed centrifugation (series 2-15 μM DNase1) [4]: 10 µM
Substance: human recombinant H2A histone (natural protein)
